## Reported melting point values for industrial, environmental and drug-like chemicals

Values as listed in the OPERA 2.9 repository of K. Mansouri.

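These are experimental values that the OPERA curators gathered from public databases to train and test their QSAR models. The files give a single number for a compound and property, which may rest on several reports. Method and conditions are not stated for these values. The measured form (salt, isomer or mixture) is not always the one drawn. Unmarked limits or estimates from the upstream databases cannot be ruled out.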

Melting points are in °C.
The databases behind each value are named after "via".

- O=C1C(c2nc3ccccc3cc2O)=C(O)c2ccccc21 [1H-Inden-1-one, 3-hydroxy-2-(3-hydroxy-2-quinolinyl)-]: MP 267.6 °C (via eChemPortal)
- Cc1ccc2c(c1)=C(NO)C(=O)N=2: MP 240 °C (via OCHEM)
- O=C(O)C1=NN(c2ccccc2)C(=O)CC1: MP 170 °C (via OCHEM)
- COc1cccc(C(=O)NCC(=O)O)c1 [n-(3-methoxybenzoyl)glycine]: MP 79 °C (via OCHEM)
- O=C1C=CC=CC1=C1NN=C2CCCCCN21: MP 272 °C (via OCHEM)
- CCCCCCCCCCCC(=O)OCC(C)(C)C=NCCCCCCN=CC(C)(C)COC(=O)CCCCCCCCCCC: MP 1.625 °C (via eChemPortal)
- CN1CCN(C(=O)CC#N)CC1 [3-(4-methylpiperazin-1-yl)-3-oxopropanenitrile]: MP 119 °C (via OCHEM)
- Cc1cc(C)c(S(=O)(=O)N2CCCC2C(=O)O)c(C)c1 (stereo not given) [1-(mesitylsulfonyl)pyrrolidine-2-carboxylic acid]: MP 85 °C (via OCHEM)
- Oc1ccccc1C(=S)S [2-Hydroxydithiobenzoic acid]: MP 49 °C (via OCHEM)
- COc1ccc(C(C)=O)cc1CN1CCCCC1 [1-{4-Methoxy-3-[(piperidin-1-yl)methyl]phenyl}ethan-1-one]: MP 55 °C (via OCHEM)
- COC(=O)C(=CN(C)C)n1ccnn1: MP 120 °C (via eChemPortal)
- Cc1ccccc1-c1n[nH]c(=S)n1N: MP 200 °C (via OCHEM)
- Nc1cc(=O)cc[nH]1 [2-amino-4-hydroxypyridine]: MP 157 °C (via OCHEM)
- Cc1ccc(NS(=O)(=O)c2cc(N)ccc2Cl)c(C)c1 [Benzenesulfonamide, 5-amino-2-chloro-N-(2,4-dimethylphenyl)-]: MP 58 °C (via OCHEM)
- Cc1cc(C(=O)O)no1 [5-METHYLISOXAZOLE-3-CARBOXYLIC ACID]: MP 200 °C (via OCHEM)
- CCC(F)(F)C(F)(F)C(F)(F)C(F)(F)C(F)(F)C(F)(F)C(F)(F)C(F)(F)C(F)(F)C(F)(F)F: MP 26.9 °C (via ChemicalBook)
- O=C(O)CCc1ccsc1 [3-thien-3-ylpropanoic acid]: MP 56 °C (via OCHEM)
- Cn1c(Cl)c(C=O)c2cc(C=O)ccc21 [2-chloro-1-methyl-1H-indole-3,5-dicarbaldehyde]: MP 165 °C (via OCHEM)
- CC(=O)c1cc(Cl)cc(CCl)c1O [1-[5-Chloro-3-(chloromethyl)-2-hydroxyphenyl]ethan-1-one]: MP 73 °C (via OCHEM)
- COc1ccc(C2CCC(=O)CC2)cc1 [4-(4-methoxyphenyl)cyclohexanone]: MP 74 °C (via eChemPortal)
- COc1cccc(NC(=O)CC#N)c1 [2-cyano-N-(3-methoxyphenyl)acetamide]: MP 155 °C (via OCHEM)
- C[C@H]1CC[C@@H]2[C@@H](C)[C@H]3[C@H](C[C@H]4[C@@H]5CC=C6C[C@@H](O)CC[C@]6(C)[C@H]5C[C@H](O)[C@]34C)N2C1 [Rubijervine]: MP 242 °C (via OCHEM)
- Cc1nc2scc(C)n2c1C=O [3,6-Dimethylimidazo[2,1-b][1,3]thiazole-5-carbaldehyde]: MP 154 °C (via OCHEM)
- Nc1cccc(-n2cnnc2)c1 [3-(4H-1,2,4-triazol-4-yl)aniline]: MP 200 °C (via OCHEM)
- Cc1cccc(OC(C)C(=O)NN)c1C (stereo not given) [2-(2,3-dimethylphenoxy)propanohydrazide]: MP 142 °C (via OCHEM)
- C=C(C)C(=O)OCCCCCCCCCCCCCC [2-Propenoic acid, 2-methyl-, tetradecyl ester]: MP 9.85 °C (via eChemPortal)
- CN(C)S(=O)(=O)c1cc(N)ccc1Cl [5-Amino-2-chloro-N,N-dimethylbenzene-1-sulfonamide]: MP 127 °C (via OCHEM)
- O=Cc1cnn(-c2ccccc2)n1 [2-Phenyl-2H-1,2,3-triazole-4-carbaldehyde]: MP 67 °C (via OCHEM)
- NC(=O)c1ccc(S(N)(=O)=O)cc1 [p-Sulphamoylbenzamide]: MP 244 °C (via OCHEM)
- Nc1ccc2oc(-c3ccccc3F)nc2c1 [2-(2-fluorophenyl)-1,3-benzoxazol-5-amine]: MP 167 °C (via OCHEM)
- Cc1ccc(S(N)(=O)=O)s1 [5-Methylthiophene-2-sulfonamide]: MP 119 °C (via OCHEM)
- O=C(O)c1ccc(NS(=O)(=O)c2ccc(Cl)cc2)cc1 [4-[(4-Chlorobenzene-1-sulfonyl)amino]benzoic acid]: MP 208 °C (via OCHEM)
- CCCCCCCCCC(=O)OCCCC [Butyl decanoate]: MP -20.3 °C (via eChemPortal)
- O=[N+]([O-])c1cc(Cl)ccc1I [4-chloro-1-iodo-2-nitrobenzene]: MP 64 °C (via OCHEM)
- CCCCc1nc2ccccc2[nH]1 [Benzimidazole, 2-butyl-]: MP 151.8 °C (via OCHEM, PubChem)
- CCOc1ccc(S(N)(=O)=O)cc1OCC [3,4-diethoxybenzenesulfonamide]: MP 153 °C (via OCHEM)

5 of these entries, quoted again:

* O=C(O)c1ccc(NS(=O)(=O)c2ccc(Cl)cc2)cc1 [4-[(4-Chlorobenzene-1-sulfonyl)amino]benzoic acid]: MP 208 °C (via OCHEM)
* Cc1ccc(NS(=O)(=O)c2cc(N)ccc2Cl)c(C)c1 [Benzenesulfonamide, 5-amino-2-chloro-N-(2,4-dimethylphenyl)-]: MP 58 °C (via OCHEM)
* O=[N+]([O-])c1cc(Cl)ccc1I [4-chloro-1-iodo-2-nitrobenzene]: MP 64 °C (via OCHEM)
* CCC(F)(F)C(F)(F)C(F)(F)C(F)(F)C(F)(F)C(F)(F)C(F)(F)C(F)(F)C(F)(F)C(F)(F)F: MP 26.9 °C (via ChemicalBook)
* C[C@H]1CC[C@@H]2[C@@H](C)[C@H]3[C@H](C[C@H]4[C@@H]5CC=C6C[C@@H](O)CC[C@]6(C)[C@H]5C[C@H](O)[C@]34C)N2C1 [Rubijervine]: MP 242 °C (via OCHEM)